This note sets out measurements from ChEMBL document CHEMBL4602733 (J Med Chem, 2020).

By UniProt entry, the sequences of proteins in these tests, tags left out. Where a name states a change or a piece, a line headed by the entry shows the natural chain unless it says otherwise.
UniProt Q9Y5N1: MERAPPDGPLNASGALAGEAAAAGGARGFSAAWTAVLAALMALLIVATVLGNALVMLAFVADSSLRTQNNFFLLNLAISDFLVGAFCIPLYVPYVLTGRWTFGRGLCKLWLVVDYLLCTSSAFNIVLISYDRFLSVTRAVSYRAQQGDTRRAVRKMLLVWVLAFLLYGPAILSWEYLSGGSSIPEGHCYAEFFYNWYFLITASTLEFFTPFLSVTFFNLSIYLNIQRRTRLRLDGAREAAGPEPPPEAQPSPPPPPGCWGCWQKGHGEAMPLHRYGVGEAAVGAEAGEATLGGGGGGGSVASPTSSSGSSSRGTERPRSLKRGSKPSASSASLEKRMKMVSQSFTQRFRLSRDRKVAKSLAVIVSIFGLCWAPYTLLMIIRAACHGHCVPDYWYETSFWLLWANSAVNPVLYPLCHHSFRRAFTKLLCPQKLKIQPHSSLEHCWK

For assay [1], the target named is T1, Histamine H3 receptor (Homo sapiens, UniProt Q9Y5N1). The assay can be described thus: biochemical.
Assay [2] deals with T1, Histamine H3 receptor.

One may read the Ki as a measure of affinity in units of concentration, obtained from inhibition or displacement. Consider `NC(=NCc1ccc(Cl)cc1)SCCCc1cnc[nH]1` [CLOBENPROPIT], for which the Ki on Histamine H3 receptor [1] is 2.51 nM; at Histamine H3 receptor [2], 0.251 nM.
